These results are taken from patent publication US10053458B2, “Pyrimidine-2,4-diamine derivative and anticancer pharmaceutical composition comprising same as effective ingredient” (KOREA RESEARCH INSTITUTE OF CHEMICAL TECHNOLOGY, priority 2014, dated 2018).

Chains of the proteins cited; added tags and fusions are not shown. Residues count along the entry.
UniProt Q9UM73, 19-1620: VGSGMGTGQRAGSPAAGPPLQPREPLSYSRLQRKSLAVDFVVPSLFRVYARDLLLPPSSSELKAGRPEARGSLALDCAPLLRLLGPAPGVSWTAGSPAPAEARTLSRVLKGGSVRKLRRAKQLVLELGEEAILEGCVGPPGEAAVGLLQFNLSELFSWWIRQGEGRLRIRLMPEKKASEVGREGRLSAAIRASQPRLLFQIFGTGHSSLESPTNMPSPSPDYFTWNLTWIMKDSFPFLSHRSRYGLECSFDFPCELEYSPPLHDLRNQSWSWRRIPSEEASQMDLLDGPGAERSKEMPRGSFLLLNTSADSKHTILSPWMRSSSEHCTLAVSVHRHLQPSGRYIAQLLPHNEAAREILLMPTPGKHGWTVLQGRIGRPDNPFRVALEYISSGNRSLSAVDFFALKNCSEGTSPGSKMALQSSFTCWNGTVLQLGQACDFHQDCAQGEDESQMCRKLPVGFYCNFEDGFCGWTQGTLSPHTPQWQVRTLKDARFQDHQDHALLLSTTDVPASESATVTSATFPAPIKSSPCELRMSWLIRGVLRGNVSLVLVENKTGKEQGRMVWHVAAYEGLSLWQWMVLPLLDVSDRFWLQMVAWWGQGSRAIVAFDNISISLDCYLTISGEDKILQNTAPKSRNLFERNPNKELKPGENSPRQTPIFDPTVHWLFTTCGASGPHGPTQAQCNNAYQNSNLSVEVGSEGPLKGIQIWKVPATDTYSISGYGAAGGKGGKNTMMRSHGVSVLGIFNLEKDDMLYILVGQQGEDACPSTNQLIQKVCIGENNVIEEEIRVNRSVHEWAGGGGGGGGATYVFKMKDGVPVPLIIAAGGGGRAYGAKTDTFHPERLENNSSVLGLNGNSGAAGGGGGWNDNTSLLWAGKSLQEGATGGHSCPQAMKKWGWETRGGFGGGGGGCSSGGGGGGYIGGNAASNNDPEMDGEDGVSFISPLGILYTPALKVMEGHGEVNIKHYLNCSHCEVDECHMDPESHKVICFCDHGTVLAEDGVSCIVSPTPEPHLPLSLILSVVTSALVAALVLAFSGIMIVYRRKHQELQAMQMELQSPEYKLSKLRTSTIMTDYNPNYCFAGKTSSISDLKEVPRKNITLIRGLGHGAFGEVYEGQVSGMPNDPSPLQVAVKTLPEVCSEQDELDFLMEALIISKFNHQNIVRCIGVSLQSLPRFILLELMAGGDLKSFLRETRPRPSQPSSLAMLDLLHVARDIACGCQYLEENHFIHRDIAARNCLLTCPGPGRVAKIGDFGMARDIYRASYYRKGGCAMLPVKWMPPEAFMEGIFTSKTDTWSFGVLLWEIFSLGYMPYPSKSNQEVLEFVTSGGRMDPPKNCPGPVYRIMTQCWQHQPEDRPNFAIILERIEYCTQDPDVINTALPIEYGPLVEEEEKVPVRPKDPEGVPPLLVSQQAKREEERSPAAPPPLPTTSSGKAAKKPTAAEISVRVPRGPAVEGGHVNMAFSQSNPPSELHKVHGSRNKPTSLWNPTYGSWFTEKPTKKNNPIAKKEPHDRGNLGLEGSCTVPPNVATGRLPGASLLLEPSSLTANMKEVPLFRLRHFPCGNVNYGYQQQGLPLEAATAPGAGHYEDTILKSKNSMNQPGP

For orientation: IC50 means the midpoint of a concentration-inhibition curve.

In the first test the target is ALK wt. (Homo sapiens (Human), UniProt Q9UM73). Briefly: ALK enzyme inhibitory activity (HTRF kinase assay), ALK wt. The settings on record: read-out: ALK wt. IC50. (Time-resolved FRET reads energy transfer from a long-lived donor to a nearby acceptor.)
Turning to `COc1cc2c(cc1Nc1ncc(Cl)c(Nc3ccccc3S(=O)(=O)C(C)C)n1)CNC2` [Example 1, 5-chloro-N4-(2-(isopropylsulfonyl)phenyl)-N2-(6-methoxyisoindolin-5-yl)pyrimidine-2,4-diamine], the IC50 was under 10 nM.

Consider `CCN1CCc2cc(Nc3ncc(Cl)c(Nc4ccccc4S(=O)(=O)C(C)C)n3)c(OC(C)C)cc2C1(C)C` [Example 79], for which the IC50 was under 10 nM.

The same test, now with this note: read-out: ALK wt. IC50; enzyme level, HTRF.
In the case of `COc1cc2c(cc1Nc1ncc(Cl)c(Nc3ccccc3S(=O)(=O)C(C)C)n1)C(C)(C)CN(C(=O)C(F)(F)F)C2` [Example 11, 1-(6-(5-chloro-4-(2-(isopropylsulfonyl)phenylamino)pyrimidin-2-yl)amino-7-methoxy-4,4-dimethyl-3,4-dihydroisoquinolin-2(1H)-yl)-2,2,2-trifluoroethane-1-one], the IC50 is under 10 nM.

For the compound `COc1cc2c(cc1Nc1ncc(Cl)c(Nc3ccccc3S(=O)(=O)C(C)C)n1)C(C)(C)CNC2` [Example 12], the IC50 was under 10 nM.

Consider `COc1cc2c(cc1Nc1ncc(Cl)c(Nc3ccccc3S(=O)(=O)C(C)C)n1)C1(CCCCC1)CN(C(=O)C(F)(F)F)C2` [Example 15, 1-(6-(5-chloro-4-(2-(isopropylsulfonyl)phenylamino)pyrimidin-2-yl)amino-7-methoxy-1H-spiro[cyclohexane-1,4-isoquinoline]-2(3H)-yl)-2,2,2-trifluoroethane-1-one], for which the IC50 was under 10 nM.

Consider `COc1cc2c(cc1Nc1ncc(Cl)c(Nc3ccccc3S(=O)(=O)C(C)C)n1)C1(CCCCC1)CNC2` [Example 16, 5-chloro-N4-(2-(isopropylsulfonyl)phenyl)-N2-(7-methoxy-2,3-dihydro-1H-spiro[cyclohexane-1,4-isoquinoline]-6-yl)pyrimidine-2,4-diamine], for which the IC50 was under 10 nM.

Turning to `CC(C)Oc1cc2c(cc1Nc1ncc(Cl)c(Nc3ccccc3S(=O)(=O)C(C)C)n1)CCN(C(=O)C(F)(F)F)C2` [Example 17, 1-(6-(5-chloro-4-(2-(isopropylsulfonyl)phenylamino)pyrimidin-2-yl)amino-7-isopropoxy-3,4-dihydroisoquinolin-2(1H)-yl)-2,2,2-trifluoroethane-1-one], the IC50 is under 10 nM.

`CC(C)COc1cc2c(cc1Nc1ncc(Cl)c(Nc3ccccc3S(=O)(=O)C(C)C)n1)CCN(C(=O)C(F)(F)F)C2` [Example 19, 1-(6-(5-chloro-4-(2-(isopropylsulfonyl)phenylamino)pyrimidin-2-yl)amino-7-isobutoxy-3,4-dihydroisoquinolin-2(1H)-yl)-2,2,2-trifluoroethane-1-one]: the IC50 was under 10 nM.

As to `CCC(C)Oc1cc2c(cc1Nc1ncc(Cl)c(Nc3ccccc3S(=O)(=O)C(C)C)n1)CCN(C(=O)C(F)(F)F)C2` (stereo not shown) [Example 21], the IC50 is under 10 nM.

With `COc1cc2c(cc1Nc1ncc(Cl)c(Nc3ccccc3S(=O)(=O)C(C)C)n1)CCN(C1CCNCC1)C2` [Example 24], the IC50 was under 10 nM.

For `COc1cc2c(cc1Nc1ncc(Cl)c(Nc3ccccc3S(=O)(=O)C(C)C)n1)CCNC2C(F)(F)F` (stereo not shown) [Example 26], the IC50 was under 10 nM.

As for `COc1cc2c(cc1Nc1ncc(Cl)c(Nc3ccccc3S(=O)(=O)C(C)C)n1)CC1(CC1)N(C(=O)C(F)(F)F)C2C` (stereo not shown) [Example 29], the IC50 was under 10 nM.

As for `COc1cc2c(cc1Nc1ncc(Cl)c(Nc3ccccc3S(=O)(=O)C(C)C)n1)CC1(CC1)NC2C` (stereo not shown) [Example 30, 5-chloro-N4-(2-(isopropylsulfonyl)phenyl)-N2-(7-methoxy-1methyl-1,4-dihydro-2H-spiro[cyclopropane-1,3-isoquinoline]-6-yl)pyrimidine-2,4-diamine], the IC50 was under 10 nM.

Consider `COc1cc2c(cc1Nc1ncc(Cl)c(Nc3ccccc3S(=O)(=O)C(C)C)n1)CCN(Cc1ccccc1)C2(C)C` [Example 31], for which the concentration for half-maximal inhibition (IC50) was under 10 nM.

Regarding `COc1cc2c(cc1Nc1ncc(Cl)c(Nc3ccccc3S(=O)(=O)C(C)C)n1)CCN(C(=O)C(F)(F)F)C2(C)C` [Example 32, 1-(6-(5-chloro-4-(2-(isopropylsulfonyl)phenylamino)pyrimidin-2-yl)amino-7-methoxy-1,1-dimethyl-3,4-dihydroisoquinolin-2(1H)-yl)-2,2,2-trifluoroethane-1-one], the IC50 was under 10 nM.

On to `CC(C)Oc1cc2c(cc1Nc1ncc(Cl)c(Nc3ccccc3S(=O)(=O)C(C)C)n1)CCNC2C` (stereo not shown) [Example 70], for which the IC50 is under 10 nM.

For the compound `CC(C)Oc1cc2c(cc1Nc1ncc(Cl)c(Nc3ccccc3S(=O)(=O)C(C)C)n1)CCNC2(C)C` [Example 71], the IC50 was under 10 nM.

As for `COc1cc2c(cc1Nc1ncc(Cl)c(Nc3ccccc3S(=O)(=O)C(C)C)n1)C(C)(C)NCC2` [Example 72], the IC50 was under 10 nM.

In the case of `CCC1(C)NCCc2cc(Nc3ncc(Cl)c(Nc4ccccc4S(=O)(=O)C(C)C)n3)c(OC)cc21` (stereo not shown) [Example 73], the IC50 is under 10 nM.

In the case of `CCC1(CC)NCCc2cc(Nc3ncc(Cl)c(Nc4ccccc4S(=O)(=O)C(C)C)n3)c(OC)cc21` [Example 74], the IC50 was under 10 nM.

For the compound `COc1cc2c(cc1Nc1ncc(Cl)c(Nc3ccccc3S(=O)(=O)C(C)C)n1)CNCC2(C)C` [Example 75], the IC50 is under 10 nM.

As to `COc1cc2c(cc1Nc1ncc(Cl)c(Nc3ccccc3S(=O)(=O)C(C)C)n1)CCNC2C(=O)O` (stereo not shown) [Example 76, 6-(5-chloro-4-(2-(isopropylsulfonyl)phenylamino)pyrimidin-2-yl)amino-7-methoxy-1,2,3,4-dihydroisoquinoline-1-carboxylic acid], the IC50 is under 10 nM.

For `CCN1CCc2cc(Nc3ncc(Cl)c(Nc4ccccc4S(=O)(=O)C(C)C)n3)c(OC)cc2C1(C)C` [Example 77], the IC50 is under 10 nM.

For `COc1cc2c(cc1Nc1ncc(Cl)c(Nc3ccccc3S(=O)(=O)C(C)C)n1)CCN(C(=O)CO)C2(C)C` [Example 78, 1-6-(5-chloro-4-(2-(isopropylsulfonyl)phenylamino)pyrimidin-2-yl)amino-7-methoxy-1,1-dimethyl-3,4-dihydroisoquinolin-2(1H)-yl-2-hydroxyethane-1-one], the IC50 is under 10 nM.

As to `CC(C)Oc1cc2c(cc1Nc1ncc(Cl)c(Nc3ccccc3S(=O)(=O)C(C)C)n1)CNCC2(C)C` [Example 80], the IC50 is under 10 nM.

`CCOc1cc2c(cc1Nc1ncc(Cl)c(Nc3ccccc3S(=O)(=O)C(C)C)n1)CN(CC)CC2(C)C` [Example 81]: the IC50 was under 10 nM.

Consider `CCN1Cc2cc(Nc3ncc(Cl)c(Nc4ccccc4S(=O)(=O)C(C)C)n3)c(OC(C)C)cc2C(C)(C)C1` [Example 82], for which the IC50 is under 10 nM.

As for `COc1cc2c(cc1Nc1ncc(Cl)c(Nc3ccccc3S(=O)(=O)C(C)C)n1)CNCC21CCCC1` [Example 83, 5-chloro-N4-(2-(isopropylsulfonyl)phenyl)-N2-(6-methoxy-2,3-dihydro-1H-spiro(cyclopentane-1,4-isoquinolin)-7-yl)pyrimidine-2,4-diamine], the IC50 is under 10 nM.

On to `COc1cc2c(cc1Nc1ncc(Cl)c(Nc3ccccc3S(=O)(=O)C(C)C)n1)C1CNCC(=O)N1CC2(C)C` (stereo not shown) [Example 85], for which the IC50 was under 10 nM.

Turning to `COc1cc2c(cc1Nc1ncc(Cl)c(Nc3ccccc3S(=O)(=O)C(C)C)n1)C1CNCCN1CC2(C)C` (stereo not shown) [Example 86, 5-chloro-N4-(2-(isopropylsulfonyl)phenyl)-N2-(9-methoxy-7,7-dimethyl-1,3,4,6,7,11b-hexahydro-2H-pyrazino[2,1-a]isoquinolin-10-yl)pyrimidine-2,4-diamine], the IC50 is under 10 nM.

As for `COc1cc2c(c(Br)c1Nc1ncc(Cl)c(Nc3ccccc3S(=O)(=O)C(C)C)n1)CCNC2(C)C` [Example 87], the IC50 is under 10 nM.

Consider `COc1cc2c(c(Cl)c1Nc1ncc(Cl)c(Nc3ccccc3S(=O)(=O)C(C)C)n1)CCNC2(C)C` [Example 88], for which the IC50 is under 10 nM.

For the compound `COc1c(Nc2ncc(Cl)c(Nc3ccccc3S(=O)(=O)C(C)C)n2)cc2c(c1Br)C(C)(C)NCC2` [Example 89], the IC50 is under 10 nM.

As for `COc1c(Nc2ncc(Cl)c(Nc3ccccc3S(=O)(=O)C(C)C)n2)cc2c(c1Cl)C(C)(C)NCC2` [Example 90], the IC50 was under 10 nM.

In the case of `COc1cc2c(cc1Nc1ncc(Cl)c(Nc3ccccc3S(=O)(=O)C(C)C)n1)CN(C)CC2(C)C` [Example 91], the half-maximal inhibitory concentration (IC50) was under 10 nM.

`CCN1Cc2cc(Nc3ncc(Cl)c(Nc4ccccc4S(=O)(=O)C(C)C)n3)c(OC)cc2C(C)(C)C1` [Example 92]: the IC50 was under 10 nM.

Consider `COc1cc2c(cc1Nc1ncc(Cl)c(Nc3ccccc3S(=O)(=O)C(C)C)n1)CN(C(=O)CN(C)C)CC2(C)C` [Example 94], for which the IC50 is under 10 nM.

As for `COc1cc2c(cc1Nc1ncc(Cl)c(Nc3ccccc3S(=O)(=O)C(C)C)n1)CN(C(=O)CO)CC2(C)C` [Example 95], the IC50 was under 10 nM.

As for `COc1cc2c(cc1Nc1ncc(Cl)c(Nc3ccccc3S(=O)(=O)C(C)C)n1)CNCC21CC1` [Example 96, 5-chloro-N4-(2-(isopropylsulfonyl)phenyl)-N2-(6-methoxy-2,3-dihydro-1H-spiro(cyclopropane-1,4-isoquinolin)-7-yl)pyrimidine-2,4-diamine], the IC50 was under 10 nM.

Regarding `CCCC1NCCc2cc(Nc3ncc(Cl)c(Nc4ccccc4S(=O)(=O)C(C)C)n3)c(OC)cc21` (stereo not shown) [Example 102], the IC50 is under 10 nM.

As to `COc1cc2c(cc1Nc1ncc(Cl)c(Nc3ccccc3S(=O)(=O)C(C)C)n1)CCCNC2(C)C` [Example 104, 5-chloro-N4-(2-(isopropylsulfonyl)phenyl)-N2-(8-methoxy-1,1-dimethyl-2,3,4,5-tetrahydro-1H-benzo[c]azepin-7-yl)pyrimidine-2,4-diamine], the IC50 is under 10 nM.

With `COc1cc2c(cc1Nc1ncc(Cl)c(Nc3ccccc3S(=O)(=O)C(C)C)n1)CCNCC2(C)C` [Example 105, 5-chloro-N4-(2-(isopropylsulfonyl)phenyl)-N2-(8-methoxy-1,1-dimethyl-2,3,4,5-tetrahydro-1H-benzo[d]azepin-7-yl)pyrimidine-2,4-diamine], the IC50 was under 10 nM.

In the case of `COc1cc2c(cc1Nc1ncc(Cl)c(Nc3ccccc3S(=O)(=O)C(C)C)n1)CNC2(C)C` [Example 106, 5-chloro-N4-(2-(isopropylsulfonyl)phenyl)-N2-(6-methoxy-1,1-dimethylisoindolin-5-yl)pyrimidine-2,4-diamine], the IC50 is under 10 nM.
